The values that follow come from article PMC7948749, “A general chemical crosslinking strategy for structural analyses of weakly interacting proteins applied to preTCR–pMHC complexes” (2021).

The target of the experiment is N15β S62C. Nature of the experiment: BMPEG3 chemical crosslinking linkage screen, SDS-PAGE quantification. The settings on record: BMPEG3 linker; four parallel linkage experiments; parent: est. 2.0; read off a plot.
On to VSV8/K^b-t2 G56C Q6A, for which the other: Specificity (heterodimer crosslinking specificity) stood at 1.7.

Consider VSV8/K^b-t2 G56C R1A, for which the other: Specificity (heterodimer crosslinking specificity) stood at 1.9.

Turning to VSV8/K^b-t2 G56C R1A; V4A; Q6A, the other: Specificity (heterodimer crosslinking specificity) amounted to 1.5.
